# Measured values from PubChem BioAssay AID588492 (Sanford-Burnham Center for Chemical Genomics, 2011).
# Only a part is listed here, and it is no random draw. The source made the active and inactive calls.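 How the source made its calls: active means compounds giving at least 50% protection of heart cells from peroxide-induced death in the single-dose screen, raw or plate-pattern-corrected value; inactive means the rest.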
# Assay: cardioprotection against H2O2-induced cell death, primary screen, uHTS, H9c2 cells, ATPLite luminescence (AID 588492);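 further: 0% = DMSO wells with peroxide and 100% = DMSO wells without peroxide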
# Conditions: H9c2 cardiomyocytes, H2O2 injury protection, 2 h, at 20 µM, hits give high values
row,Compound,protection from H2O2 cell death
1,CC1CCN(C(=O)Oc2c(Cl)cc(Cl)c3cccnc23)CC1,inactive: -3.9%
2,c1cc(-c2nn[nH]n2)ccc1-c1nn[nH]n1,inactive: 3.3%
3,C[N+]1=C2C=CC=CC=C2SC12C([N+](=O)[O-])=CC([N+](=O)[O-])=C[C-]2[N+](=O)[O-] (centres undefined),inactive: -15.5%
4,Nc1ccc([As](=O)(O)c2ccc(N)cc2)cc1,inactive: 1.3%
5,CCN(/C(=N/P(=O)(N1CCOCC1)N1CCOCC1)N1CCOCC1)c1ccc(OC)cc1,inactive: -0.5%
6,CC(=O)N1C2C3N(C(C)=O)C1C1N(C(C)=O)C(C(N1C(C)=O)N3C(C)=O)N2C(C)=O,inactive: 14.1%
7,O=[N+]([O-])c1cccc2n[nH]nc12,inactive: -3.9%
8,O=[N+]([O-])c1cc([N+](=O)[O-])c(CCNc2ccccc2)c([N+](=O)[O-])c1,inactive: 2%
9,CCc1nc2c(n1)c1c(non1O)c1c2no[n+]1[O-],inactive: -5.1%
10,Cc1ccc(NP(=O)(Oc2ccccc2)Oc2ccccc2)nc1,inactive: -6.7%
11,COc1ccc(C2=NCC(CBr)S2)cc1 (centres undefined),inactive: 3.6%
12,COC(=O)C1(C)COP(=O)(Nc2ccccc2)OC1 (centres undefined),inactive: 6.1%
13,O=[N+]([O-])c1cccc(NC2=NCC(CBr)S2)c1 (centres undefined),inactive: -1.6%
14,O=C(O)CNc1ccc([As](=O)(O)O)cc1,inactive: -5.6%
15,CC(C)(C)C(=O)NC(Sc1ccncn1)C(Cl)(Cl)Cl (centres undefined),inactive: 7.8%
16,O=[N+]([O-])c1ncn(CCn2ncnc2[N+](=O)[O-])n1,inactive: 3.7%
17,O=C(Nc1cc([As](=O)(O)O)ccc1O)c1ccccc1,inactive: -1.1%
18,O=P1(N(CCCl)CCCl)OCCCS1 (centres undefined),inactive: 2.4%
19,O=[N+]([O-])c1ccc(Nc2ccc(Oc3ccc([N+](=O)[O-])cc3[N+](=O)[O-])cc2)c([N+](=O)[O-])c1,inactive: -2.1%
20,Cc1cc(SC(NC=O)C(Cl)(Cl)Cl)ncn1 (centres undefined),inactive: 1%
21,O=P(Nc1ccccn1)(c1cccc2ccccc12)c1cccc2ccccc12,inactive: -2.7%
22,CCOC(=O)Nc1cccc([As](=O)(O)O)c1,inactive: 0%
23,Cc1cc(SC(NC(=O)c2ccccc2)C(Cl)(Cl)Cl)nc(C(C)C)n1 (centres undefined),inactive: -2%
24,COP(=O)(OC)N1CC1c1ccccc1 (centres undefined),inactive: -4.8%
25,CC1CCNP(=O)(N(CCCl)CCCl)O1 (centres undefined),inactive: -0.5%
26,O=C(O)C(O)c1ccc(N(CCCl)CCCl)cc1 (centres undefined),inactive: -1.8%

row,Compound,protection from H2O2 cell death
1,CCOC(=O)Nc1ccc([As](=O)(O)O)c(O)c1,inactive: 0.7%
2,CCC(C)N(CC(C)C)C(=S)SC(NC(C)=O)C(Cl)(Cl)Cl (centres undefined),inactive: -0.6%
3,CCOC(=O)c1ccc(NC(=O)C(C)(CCl)SC)cc1 (centres undefined),inactive: -0.4%
4,CSc1ccc(Nc2c([N+](=O)[O-])cc([N+](=O)[O-])cc2[N+](=O)[O-])cc1,inactive: -19.4%
5,O=C(OC1CN2CCC1CC2)c1cccc([N+](=O)[O-])c1 (centres undefined),inactive: 11.2%
6,O=C(Nc1ccncc1[N+](=O)[O-])c1ccc([N+](=O)[O-])cc1[N+](=O)[O-],inactive: 4.1%
7,O=C(COc1ccccc1)OC1CN2CCC1CC2 (centres undefined),inactive: 5.9%
8,O=C(O)C(=O)c1ccc(N(CCCl)CCCl)cc1,inactive: -1.1%
9,COC(=O)C1(C)COP(=O)(N2CCCC2)OC1 (centres undefined),inactive: 7.7%
10,COP1(=S)c2c(C)nn(CCC#N)c2N=C(c2ccc(F)cc2)N1C (centres undefined),inactive: 9.5%
11,COc1ccc(N/C(=N/P(=O)(N2CCOCC2)N2CCOCC2)N2CCOCC2)cc1,inactive: 4.8%
12,O=[N+]([O-])c1cc(Oc2ccc([N+](=O)[O-])cc2C(F)(F)F)cc([N+](=O)[O-])c1,inactive: -9.9%
13,COc1cc(I)ccc1[As](=O)(O)O,inactive: 0%
14,COc1ccc2nc(NP(=O)(c3ccccc3)c3ccccc3)sc2c1,inactive: 11.3%
15,O=P1(N(CCCl)CCCl)OCCCN1CCCl (centres undefined),inactive: 2.9%
16,O=P1(N(CCCl)CCCl)Nc2ccccc2N1,active: 59.2%
17,Cc1cc(=O)[nH]c(N[N+](=O)[O-])n1,inactive: -0.6%
18,O=C(OC1CN2CCC1CC2)C12CC3CC(CC(C3)C1)C2 (centres undefined),inactive: -4.4%
19,Cc1c2c(nc3ccccc13)SC(C(Cl)Cl)C2 (centres undefined),inactive: -3.3%
20,O=[N+]([O-])c1cc([N+](=O)[O-])c(-c2ccn[nH]2)s1,inactive: -23.2%
21,CC(C)NC(=O)NP(=O)(Oc1ccccc1)Oc1ccccc1,inactive: -2.5%
22,CCN(CC)C(=S)SC(NC=O)C(Cl)(Cl)Cl (centres undefined),inactive: -8.3%
23,O=C(OC1CN2CCC1CC2)c1cccc2[nH]cnc12 (centres undefined),inactive: 9.1%
24,COC(=O)C1(C)COP(=O)(N2CCCCCC2)OC1 (centres undefined),inactive: -2.1%
25,CC(C)c1ccc(OP(=O)(Nc2ccccn2)Oc2ccccc2F)cc1 (centres undefined),inactive: -4.5%
26,ClCCSc1nnc(-c2cccnc2)o1,inactive: 3%

row,Compound,protection from H2O2 cell death
1,Cc1ccc2nc3c(c(C)c2c1)CC(C(Cl)Cl)S3 (centres undefined),inactive: -3.3%
2,Cc1ccc(OP(=O)(Nc2ccc([N+](=O)[O-])cn2)Oc2ccc(C)cc2)cc1,inactive: -7.2%
3,O=[N+]([O-])c1ccc(-c2cc([N+](=O)[O-])c(O)c([N+](=O)[O-])c2)cc1,inactive: -0.1%
4,C[As](=O)(O)c1cccc(C(=O)O)c1,inactive: -3.9%
5,O=[As](O)(c1ccc(O)cc1)c1ccccc1O,inactive: 0.4%
6,CN(C(=O)Cc1ccc(Cl)c(Cl)c1)[C@H]1CC[C@@]2(CCCO2)C[C@@H]1N1CCCC1,inactive: 2.3%
7,O=[N+]([O-])c1ccc2c(c1)nnn2O,inactive: -6.1%
8,CN(C)C(=O)c1cc([N+](=O)[O-])cc2c1-c1c(cc([N+](=O)[O-])cc1[N+](=O)[O-])C2=O,inactive: -13.6%
9,CCOP1(=S)c2c(C)nn(CCC#N)c2N=C(c2ccc(F)cc2)N1C (centres undefined),inactive: 4%
10,CN(C(=O)Cc1ccccc1)[C@@H]1CC[C@]2(CCCO2)C[C@H]1N1CCCC1,inactive: 1.1%
11,N#CCCN(C(=O)COC(=O)C(O)(c1ccccc1)c1ccccc1)c1ccc(F)cc1,inactive: -5.5%
12,NC(=O)Nc1ccc([As](=O)(O)O)cc1,inactive: 8.7%
13,O=C(O)COc1ccc([As](=O)(O)O)cc1[N+](=O)[O-],inactive: -0.7%
14,Nc1ccccc1[As](=O)(O)c1ccccc1,inactive: 1.2%
15,CS(=O)(=O)c1cc([N+](=O)[O-])c2no[n+]([O-])c2c1,inactive: -7.2%
16,O=P(Nc1nccs1)(Oc1ccccc1)Oc1ccccc1,inactive: 8.3%
17,O=P(Nc1nccs1)(c1ccccc1)c1nc2ccccc2s1 (centres undefined),inactive: -6.4%
18,CCOP1(=S)c2c(C)nn(CCC#N)c2N=C(c2ccccc2F)N1C (centres undefined),inactive: 8.8%
19,CCOP(=O)(Nc1cccc2ccccc12)OCC,inactive: -2.1%
20,COc1cc(C2NCCC3(OCCO3)C2(C)C)cc(OC)c1OC (centres undefined),inactive: -8.5%
21,CCCOP(=S)(Nc1nc(N)cc(=O)[nH]1)OCCC,inactive: 1.9%
22,Cc1ccc(NCCc2c([N+](=O)[O-])cc([N+](=O)[O-])cc2[N+](=O)[O-])cc1,inactive: -3.3%
23,Nc1cccc2c([As](=O)(O)O)cccc12,inactive: 3.4%
24,Cc1cccc(OCC(=O)OC2CN3CCC2CC3)c1 (centres undefined),inactive: 13.8%
25,O=[As](O)(c1cccc(O)c1)c1cccc(O)c1,inactive: 1.9%
26,CS(=O)(=O)c1ccc(Cl)c(NC(=O)COC(=O)C(O)(c2ccccc2)c2ccccc2)c1,inactive: 2.6%

row,Compound,protection from H2O2 cell death
1,O=[As](O)(O)c1cccnc1,inactive: 0%
2,O=C(OC1CN2CCC1CC2)c1ccc(Cl)cc1 (centres undefined),inactive: 2.3%
3,CC1(CBr)Cn2c(nc3ccccc3c2=O)S1 (centres undefined),inactive: -1.2%
4,CN(C(=O)Cc1ccc(Cl)c(Cl)c1)[C@@H]1CCCC[C@H]1N1CCCC1,inactive: -2.3%
5,CC(C)/C=N\N=C(\N)N[N+](=O)[O-],inactive: 4.8%
6,COc1ccccc1CNC(=O)COC(=O)C(O)(c1ccccc1)c1ccccc1,inactive: -3.4%
7,CC(C)(C)C(=O)NC(Sc1ncccn1)C(Cl)(Cl)Cl (centres undefined),inactive: 0.8%
8,Clc1n[nH]nc1-c1nn[nH][15n]1,inactive: -1.6%
9,O=P1(N(CCCl)CCCl)NCCC(C(F)(F)F)O1 (centres undefined),inactive: 6.9%
10,CCOP(=O)(Nc1ccc(C)cn1)OCC,inactive: -0.7%
11,CN(CCCl)Cc1cc(Cl)c(NC2=NCCN2)c(Cl)c1,inactive: 0.8%
12,CCOP(=O)(NC(=NC(C)c1ccccc1)NC(C)c1ccccc1)OCC (centres undefined),inactive: 2.9%
13,CCC1=CC2Cc3nc4ccc(Cl)cc4c(N)c3C(C1)C2 (centres undefined),inactive: -17.6%
14,O=P1(Nc2ccccn2)COc2ccccc2OC1,inactive: -0.1%
15,Cc1ccc(OCC(=O)OC2CN3CCC2CC3)cc1 (centres undefined),inactive: 3%
16,O=[As](O)(c1cccs1)c1cccs1,inactive: 4%
17,NS(=O)(=O)c1cccc(NC(=O)COC(=O)C(O)(c2ccccc2)c2ccccc2)c1,inactive: -5.4%
18,O=P1(Nc2ccc(Br)cn2)COc2ccccc2OC1,inactive: -0.2%
19,Nc1cccc([As](=O)(O)c2ccccc2)c1,inactive: -3.7%
20,O=P1(Nc2ncccn2)COc2ccccc2OC1,inactive: -1%
21,Cc1ccc(S(=O)(=O)N(CCCN)CCCc2c(C)nc(N)[nH]c2=O)cc1,inactive: 1.2%
22,CCCC1OP(=O)(Nc2ccccc2)OCC1CC (centres undefined),inactive: -4.7%
23,O=C(/C=C/c1ccccc1)OC1CN2CCC1CC2 (centres undefined),inactive: -2.1%
24,Cc1ccc(C(=O)OC2CN3CCC2CC3)cc1 (centres undefined),inactive: 3.5%
25,CC1CCC(C(C)C)C(OP(=O)(Nc2ccccn2)c2ccccc2)C1 (centres undefined),inactive: 46.5%
26,Cc1nn(-c2ccccc2)c2c1P(=O)(N1CCOCC1)N(C)C(c1ccccc1)=N2 (centres undefined),inactive: 7.5%
